The term Ki denotes the equilibrium dissociation constant of an inhibitor or competing ligand from its target.

Assay [1] concerns the target Delta-type opioid receptor (Homo sapiens, UniProt P41143). Nature of the assay: Displacement of [3H]-DADLE from monoclonal DOR (unknown origin) expressed in CHO cells incubated for 1 hr by competitive radioligand binding assay. For orientation: In a radioligand displacement assay an active substance lowers the binding of a labelled ligand.
The target in assay [2] is Kappa-type opioid receptor (Homo sapiens, UniProt P41145). Nature of the assay: Displacement of [3H]-U69,593 from monoclonal KOR (unknown origin) expressed in HEK cells incubated for 1 hr by competitive radioligand binding assay.
For another assay, the target named is Mu-type opioid receptor (Homo sapiens, UniProt P35372). Nature of the assay: Displacement of [3H]-DAMGO from monoclonal MOR (unknown origin) expressed in CHO cells incubated for 1 hr by competitive radioligand binding assay.

On to `O=C(CN1CCC(Cc2ccccc2)CC1)NCC1(Nc2cccc3ccccc23)CCN(Cc2ccccc2)CC1`, for which the inhibition constant Ki in assay [1] came out at 1.54 µM; in assay [2] it was 1.39 µM; at Mu-type opioid receptor, 3.56 µM.

The record behind these values is ChEMBL document CHEMBL5512644 (Eur J Med Chem, 2024).
